Reference: US5686466A, “Tricyclic condensed heterocyclic compounds their production and use” (priority 1993, dated 1997)

By UniProt entry, the sequences of proteins in these tests, tags left out. Residues count along the entry.
UniProt P37136, 32-614 limits assumed: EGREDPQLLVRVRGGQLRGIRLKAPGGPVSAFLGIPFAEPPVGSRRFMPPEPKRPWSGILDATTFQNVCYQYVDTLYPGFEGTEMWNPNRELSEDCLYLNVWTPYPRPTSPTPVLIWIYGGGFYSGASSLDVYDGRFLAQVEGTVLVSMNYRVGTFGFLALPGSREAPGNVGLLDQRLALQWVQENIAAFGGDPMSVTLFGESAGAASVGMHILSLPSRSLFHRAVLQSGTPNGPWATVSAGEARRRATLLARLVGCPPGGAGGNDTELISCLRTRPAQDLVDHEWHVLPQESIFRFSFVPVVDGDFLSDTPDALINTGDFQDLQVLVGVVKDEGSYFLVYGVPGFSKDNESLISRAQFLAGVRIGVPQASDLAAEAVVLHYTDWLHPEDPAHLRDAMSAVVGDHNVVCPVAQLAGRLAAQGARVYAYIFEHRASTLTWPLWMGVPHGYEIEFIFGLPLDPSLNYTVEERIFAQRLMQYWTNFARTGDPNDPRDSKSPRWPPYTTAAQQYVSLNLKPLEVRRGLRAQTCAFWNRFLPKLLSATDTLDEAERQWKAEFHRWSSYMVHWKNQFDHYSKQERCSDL

Target: Acetylcholinesterase (Rattus norvegicus, UniProt P37136)
Test: cholinesterase inhibitory activity using (acetyl-[^3 H])-acetylcholine, S1 fraction of rat cerebral cortex homogenate
Assay type: biochemical, male Wistar rat
Conditions: read-out: Acetylcholinesterase Inhibitory Activity IC50, 30 min incubation, tested form: 2HCl.3/2H2O

O=C(CCN1CCN(Cc2ccccc2)CC1)c1cc2c3c(c1)CC(=O)N3CCCCC2
IC50: 24 nM
